Literature values, collected in patent US4971962A, “Cephalosporin compounds” (Lucky, Ltd., priority 1988, dated 1990).

Conditions: dog (Beagle), i.v. 20 mg/kg, II Compartment; cited from earlier work

Which “T1/2 (α)” value does the source give for `CC(C)(O/N=C(\C(=O)N[C@@H]1C(=O)N2C(C(=O)[O-])=C(C[n+]3ccccc3)CS[C@H]12)c1csc(N)n1)C(=O)O` [Ceftazidime, reference compound] here?
Its value is 7.27 min.

What about the “T1/2 (β)” value of the same compound?
The value was 49.0 min.
